Target: Solute carrier family 22 member 12 (Homo sapiens, UniProt Q96S37)
Test: Inhibition of URAT1 (unknown origin)

By UniProt entry, the sequences of proteins in these tests, tags left out. Where a name states a change or a piece, a line headed by the entry shows the natural chain unless it says otherwise.
UniProt Q96S37: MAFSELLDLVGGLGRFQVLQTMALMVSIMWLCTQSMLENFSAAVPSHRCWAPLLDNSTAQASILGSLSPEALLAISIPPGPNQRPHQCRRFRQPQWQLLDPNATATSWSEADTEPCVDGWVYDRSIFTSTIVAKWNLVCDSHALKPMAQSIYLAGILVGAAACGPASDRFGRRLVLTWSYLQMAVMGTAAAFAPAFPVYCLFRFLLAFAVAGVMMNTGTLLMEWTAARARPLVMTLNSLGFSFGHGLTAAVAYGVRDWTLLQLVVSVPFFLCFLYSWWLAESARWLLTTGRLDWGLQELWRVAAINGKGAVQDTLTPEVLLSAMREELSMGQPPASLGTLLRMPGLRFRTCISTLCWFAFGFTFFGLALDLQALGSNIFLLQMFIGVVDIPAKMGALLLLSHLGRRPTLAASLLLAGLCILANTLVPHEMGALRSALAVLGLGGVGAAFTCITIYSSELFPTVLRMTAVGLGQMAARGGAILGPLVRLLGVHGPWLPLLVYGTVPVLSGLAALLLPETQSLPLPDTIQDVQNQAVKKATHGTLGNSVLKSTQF

O=C(O)CSc1nnc(Br)n1-c1ccc(C2CC2)c2ccccc12
IC50: 6.7 µM
